Literature values as cited in patent publication US20230154571A1, “METHOD AND DEVICE FOR SELECTING A SUBASSEMBLY OF MOLECULES FOR USE IN PREDICTING AT LEAST ONE PROPERTY OF A MOLECULAR STRUCTURE” (published 2023).

System: different bacterial cultures
Conditions: for Exp. data: Annex 2, AMES mutagenicity test, different categories of molecules; for Experimental data: Annex 1, AMES mutagenicity test, load molecules, data validated at the level of the European authorities

nitrogen tetroxide
Exp. data: +

C=CCOC(=O)c1ccccc1C(=O)OCC=C
Exp. data: −

CCCCOC(=O)CCCCCCCCC(=O)OCCCC
Exp. data: −

c1ccc(N(c2ccccc2)c2ccccc2)cc1
Exp. data: −

strontium nitrate
Exp. data: −

CCOCC
Exp. data: −

Cc1ccccc1[N+](=O)[O-]
Experimental data: − | Exp. data: −

sodium nitrate
Exp. data: −

O=[N+]([O-])c1cccc2ccccc12
Experimental data: + | Exp. data: +

barium chlorate
Exp. data: −

NN
Exp. data: +

2-nitro diphenylamine
Exp. data: −

O=[N+]([O-])c1ccc(Cl)c([N+](=O)[O-])c1
Experimental data: + | Exp. data: +

oxide nitrous
Exp. data: +

strontium chloride
Exp. data: −

O=[N+]([O-])c1ccc(Cl)c(Cl)c1
Experimental data: + | Exp. data: +

Acide perchlorique
Exp. data: −

Acide nitric
Exp. data: +

strontium sulfate
Exp. data: −

CNN
Exp. data: +

1-chloro-4-dinitrobenzene
Experimental data: + | Exp. data: +

c1ccc(Nc2ccccc2)cc1
Exp. data: −

strontium carbonate
Exp. data: −

calcium carbonate
Exp. data: −

Paris Green
Exp. data: −
